# Experimental data as given in patent US9018216B2, “Solid forms of (R)-2-(5-(2-(3-ethylureido)-6-fluoro-7-(tetrahydrofuran-2-yl)-1H-benzo[d]imidazol-5-yl)pyrimidin-2-yl)propan-2-yl dihydrogen phosphate and salts thereof” (priority 2012, dated 2015).
# Assay: Rat IV pharmacokinetic study
# Conditions: D5W, plasma analyte
structure (smiles),measurement,setting,value
"CCNC(=O)Nc1nc2cc(-c3cnc(C(C)(C)O)nc3)c(F)c([C@H]3CCCO3)c2[nH]1 [Compound 23, 1-ethyl-3-[6-fluoro-5-[2-(1-hydroxy-1-methyl-ethyl)pyrimidin-5-yl]-7-[(2R)-tetrahydrofuran-2-yl]-1H-benzimidazol-2-yl]urea]",Cmax/C0,Compound W IV 1 mg/kg,247 ng/mL
same,Cmax/C0,Compound W IV 5 mg/kg,1200 ng/mL
